Laboratory results: patent US20230374087A1, “METHOD TO IMPROVE PROTEIN QUALITY CONTROL” (The Johns Hopkins University, priority 2020, published 2023)

Legend:
[1] = tested on: ubiquitinated proteins; experiment: Western blot of ubiquitinated proteins in NRCMs after SI; format: cell-based, rat; settings: adenovirus CHIP variant, SI 48 hours, compared to CHIP-WT
Method: Tissue and cultured cardiomyocytes were lysed in 1× lysis buffer (Cell Signaling Technology), protein concentration was measured by bicinchoninic acid assay (Pierce), and extracts were subjected to SDS-PAGE using Novex Tris-Glycine Gels (4-20% gradient gel, Life Technologies) or Mini-protean TGX Gels (4-20% gradient gel, Bio-Rad), transferred to nitrocellulose membranes, and probed with various primary antibodies (CHIP (#2080S), Hsc70 (#8444S), p-CHIP S20 (Custom antibody, AbMart Inc., Shanghai, China; Project: 25011-1), Myc (#2276S), GAPDH (#2118S), and α-tubulin (#3878S) (Cell Signaling) and ubiquitin antibody (#SAB4503053) from Sigma), and fluorescence-labeled secondary antibodies (Licor, #926-32211, 926-32210, 926-68023, or 926-68022). Gels were imaged (Odyssey, Licor) and band intensity quantified (Odyssey Software 3.1).

[2] = tested on: neonatal rat cardiomyocytes (NRCMs); experiment: LDH/MTT cytotoxicity assay after simulated ischemia (SI); settings: NRCMs infected with adenovirus expressing the CHIP variant, SI 48 hours, compared to CHIP-WT

B1: CHIP-S20E: CHIP with serine 20 to glutamic acid phospho-mimetic substitution; recombinant protein, adenovirus-expressed, or knock-in mouse (protein)
chain: MKGKEEKEGGARLGAGGGEPEKSPSAQELKEQGNRLFVGRKYPEAAACYGRVITRNPLVAVYYTNRALCYLKMQQHEQALADCRRALELDGQSVKAHFFLGQCQLEMESYDEAIANLQRAYSLAKEQRLNFGDDIPSALRIAKKKRWNSIEERRIHQESELHSYLSRLIAAERERELEECQRNHEGDEDDSHVRAQQACIEAKHDKYMADMDELFSQVDEKRKKRDIPDYLCGKISFELMREPCITPSGITYDRKDIEEHLQRVGHFDPVTRSPLTQEQLIPNLAMKEVIDAFISENGWVEDY
modifications: left off: small tags and cut ends
notes: CHIP with serine 20 to glutamic acid phospho-mimetic substitution; recombinant protein, adenovirus-expressed, or knock-in mouse
ubiquitinated proteins after SI [1]: attenuated | SI-induced cytotoxicity (LDH/MTT ratio) [2]: mimicked the cytoprotection observed in CHIP-WT-expressing myocytes co-incubated with the SIL
